Experimental data as given in ChEMBL document CHEMBL1151934, “Exploration and optimization of substituted triazolothiadiazines and triazolopyridazines as PDE4 inhibitors” (Bioorg Med Chem Lett, 2009).

Chains of the proteins cited; added tags and fusions are not shown. Lines headed by an entry give the natural chain unless they say otherwise; changes in a name come on top.
UniProt Q14432: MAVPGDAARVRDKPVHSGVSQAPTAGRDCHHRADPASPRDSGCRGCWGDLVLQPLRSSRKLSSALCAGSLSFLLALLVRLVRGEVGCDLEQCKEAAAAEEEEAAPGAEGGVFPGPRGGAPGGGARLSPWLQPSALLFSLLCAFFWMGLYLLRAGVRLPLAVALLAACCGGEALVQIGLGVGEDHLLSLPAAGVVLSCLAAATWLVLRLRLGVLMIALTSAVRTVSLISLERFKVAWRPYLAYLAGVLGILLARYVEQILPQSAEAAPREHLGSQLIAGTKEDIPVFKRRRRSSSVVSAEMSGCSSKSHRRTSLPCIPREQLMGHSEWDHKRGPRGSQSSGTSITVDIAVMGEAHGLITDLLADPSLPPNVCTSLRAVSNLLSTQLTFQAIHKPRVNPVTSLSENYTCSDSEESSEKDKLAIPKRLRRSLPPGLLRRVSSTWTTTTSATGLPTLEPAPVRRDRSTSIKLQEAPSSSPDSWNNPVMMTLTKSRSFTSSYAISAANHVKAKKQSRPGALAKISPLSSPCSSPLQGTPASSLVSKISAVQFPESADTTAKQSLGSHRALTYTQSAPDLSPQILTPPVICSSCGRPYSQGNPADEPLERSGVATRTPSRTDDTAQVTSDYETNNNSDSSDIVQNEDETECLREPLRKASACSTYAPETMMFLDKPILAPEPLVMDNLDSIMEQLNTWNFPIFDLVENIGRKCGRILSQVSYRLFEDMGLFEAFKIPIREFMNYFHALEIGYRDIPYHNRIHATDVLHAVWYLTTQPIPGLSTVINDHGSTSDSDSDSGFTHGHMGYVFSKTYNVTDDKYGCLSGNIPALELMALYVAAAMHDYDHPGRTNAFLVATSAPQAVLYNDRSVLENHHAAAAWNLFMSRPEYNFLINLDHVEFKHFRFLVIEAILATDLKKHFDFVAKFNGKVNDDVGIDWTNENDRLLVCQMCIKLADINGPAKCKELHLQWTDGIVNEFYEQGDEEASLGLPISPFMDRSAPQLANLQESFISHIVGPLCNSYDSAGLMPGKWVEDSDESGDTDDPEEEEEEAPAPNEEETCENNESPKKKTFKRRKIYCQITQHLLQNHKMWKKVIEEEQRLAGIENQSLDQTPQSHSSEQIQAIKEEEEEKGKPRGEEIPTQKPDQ
UniProt Q13370: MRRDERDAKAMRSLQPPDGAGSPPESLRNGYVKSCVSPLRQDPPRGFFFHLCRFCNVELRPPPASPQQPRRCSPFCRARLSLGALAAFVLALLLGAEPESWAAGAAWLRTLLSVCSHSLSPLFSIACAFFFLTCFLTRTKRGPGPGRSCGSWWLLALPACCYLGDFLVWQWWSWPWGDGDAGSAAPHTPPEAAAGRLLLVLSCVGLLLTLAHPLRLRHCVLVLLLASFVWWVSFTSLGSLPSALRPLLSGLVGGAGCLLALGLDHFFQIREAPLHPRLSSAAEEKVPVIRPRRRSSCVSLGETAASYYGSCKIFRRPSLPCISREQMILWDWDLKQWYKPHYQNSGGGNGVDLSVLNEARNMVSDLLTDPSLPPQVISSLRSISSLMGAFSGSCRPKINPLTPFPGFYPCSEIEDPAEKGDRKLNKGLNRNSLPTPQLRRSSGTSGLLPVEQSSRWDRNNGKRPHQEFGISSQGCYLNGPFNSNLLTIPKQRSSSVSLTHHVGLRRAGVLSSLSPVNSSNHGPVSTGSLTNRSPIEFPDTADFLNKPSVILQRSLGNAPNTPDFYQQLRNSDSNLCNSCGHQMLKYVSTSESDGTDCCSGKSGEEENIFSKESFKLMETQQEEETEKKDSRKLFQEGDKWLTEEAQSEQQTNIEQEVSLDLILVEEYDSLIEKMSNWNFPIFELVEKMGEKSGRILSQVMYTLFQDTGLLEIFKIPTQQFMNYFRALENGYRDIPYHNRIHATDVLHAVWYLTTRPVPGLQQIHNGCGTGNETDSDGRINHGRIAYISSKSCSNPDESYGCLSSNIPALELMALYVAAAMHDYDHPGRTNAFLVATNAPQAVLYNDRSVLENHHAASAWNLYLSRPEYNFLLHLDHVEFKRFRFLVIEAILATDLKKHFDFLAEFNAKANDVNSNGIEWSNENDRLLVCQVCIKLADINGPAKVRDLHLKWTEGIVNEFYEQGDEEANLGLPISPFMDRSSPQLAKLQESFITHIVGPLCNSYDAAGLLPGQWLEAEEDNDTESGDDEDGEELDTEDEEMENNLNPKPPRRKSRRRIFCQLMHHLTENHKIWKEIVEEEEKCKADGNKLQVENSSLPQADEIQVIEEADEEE
UniProt Q01064: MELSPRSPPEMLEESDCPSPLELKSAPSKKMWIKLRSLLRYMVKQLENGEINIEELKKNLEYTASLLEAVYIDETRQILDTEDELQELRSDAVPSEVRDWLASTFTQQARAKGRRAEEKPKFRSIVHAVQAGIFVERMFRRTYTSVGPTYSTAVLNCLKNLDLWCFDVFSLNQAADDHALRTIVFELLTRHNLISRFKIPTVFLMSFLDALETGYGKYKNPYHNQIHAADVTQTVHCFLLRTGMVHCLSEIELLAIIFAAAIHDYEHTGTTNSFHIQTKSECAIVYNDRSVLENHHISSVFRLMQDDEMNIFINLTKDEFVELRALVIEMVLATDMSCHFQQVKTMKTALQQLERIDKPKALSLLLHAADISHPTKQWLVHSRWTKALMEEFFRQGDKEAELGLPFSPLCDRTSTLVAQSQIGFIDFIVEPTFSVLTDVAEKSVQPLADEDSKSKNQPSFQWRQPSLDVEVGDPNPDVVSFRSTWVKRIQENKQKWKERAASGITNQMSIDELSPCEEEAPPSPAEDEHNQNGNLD

How the values were obtained:
[1] = target: cGMP-inhibited 3',5'-cyclic phosphodiesterase 3A (Homo sapiens, UniProt Q14432)
[2] = target: cGMP-inhibited 3',5'-cyclic phosphodiesterase 3B (Homo sapiens, UniProt Q13370)
[3] = Inhibition of PDE4A1A
[4] = target: Dual specificity calcium/calmodulin-dependent 3',5'-cyclic nucleotide phosphodiesterase 1B (Homo sapiens, UniProt Q01064)

In the case of COc1ccc(C2CNC(=O)C2)cc1OC1CCCC1 (centres undefined) [ROLIPRAM], the IC50 [1] is reported as “Not Active” and the IC50 [2] is reported as “Not Active”.

Molecule COc1ccc(OC)c(-c2nnc3n2N=C(c2ccc(OC)c(O[C@@H]4CCOC4)c2)CS3)c1 has an IC50 [3] of 260 pM.

With COc1ccc(OC)c(-c2nnc3n2N=C(c2ccc(OC)c(OC)c2)CS3)c1 the IC50 [4] was “Not Active”.
